The assay has as its system immune-captured F1FO-ATP synthase (solubilized rat heart mitochondria). The assay is described as follows: cTnI binding to ATP synthase by ELISA. Particulars: relative to unphosphorylated cTnI. (ELISA stands for enzyme-linked immunosorbent assay.)

Entries after “also recorded” stand apart in the source; their conditions may differ.

For “cTnI-S42/44D: recombinant cTnI with phosphomimetic substitutions (serine to aspartate) at Ser42 and Ser44”, the “binding affinity to ATP synthase” value (n=4) is recorded as “greater binding affinity; also recorded: higher binding affinity”. Besides, the “maximal binding to ATP synthase” value (n=4 (h), n=6 (e)) is listed as “greater maximal binding to ATP synthase than unphosphorylated cTnI”.
